In patent US20150231067A1, “METHOD AND COMPOSITION FOR TREATING HYPERGLYCEMIA” (MannKind Corporation, priority 2012, published 2015):
Where two headings read alike, the source gives them in different places.

Substance: oxyntomodulin
- Tmax (inhaled oxyntomodulin/FDKP powder, male ZDF rats): less than 15 min
- maximal plasma concentration (rats receiving 1.5 mg): 311 µg/mL
- maximal plasma concentration (rats receiving 3 mg): 660 µg/mL
